The record followed here is US9655906B2, “Tricyclic indazole compound, method of preparation and pharmaceutical composition containing it” (AZIENDE CHIMICHE RIUNITE ANGELINI FRANCESCO A.C.R.A.F S.p.A., priority 2010, dated 2017).

Chains of the proteins cited; added tags and fusions are not shown. Residues count along the entry.
UniProt P28335, 33-458: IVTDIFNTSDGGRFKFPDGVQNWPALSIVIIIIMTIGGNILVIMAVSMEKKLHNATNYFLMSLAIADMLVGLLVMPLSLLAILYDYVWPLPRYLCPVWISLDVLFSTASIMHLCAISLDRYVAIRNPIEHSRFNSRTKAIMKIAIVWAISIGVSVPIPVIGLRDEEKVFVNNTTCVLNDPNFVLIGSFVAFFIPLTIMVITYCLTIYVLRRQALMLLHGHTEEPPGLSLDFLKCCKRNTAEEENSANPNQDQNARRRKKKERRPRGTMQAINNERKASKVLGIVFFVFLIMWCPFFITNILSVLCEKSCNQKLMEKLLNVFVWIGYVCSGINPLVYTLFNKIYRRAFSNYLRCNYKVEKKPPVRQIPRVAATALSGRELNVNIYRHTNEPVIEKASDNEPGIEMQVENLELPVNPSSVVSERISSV

Structures are written as SMILES.

The assay addresses T1, human 5-HT2C receptor (Homo sapiens, UniProt P28335).
T1 construct: expressed in transfected cells
As to the kind of experiment: Test B: binding to human 5-HT2C serotonin receptor, [3H]-mesulergine displacement. The settings on record: membranes from CHO-K1 cells expressing human 5-HT2C; read-out: Kd of radioligand (saturation studies). As for the experimental part:
69: 1449-1458. In particular, binding to the human serotonin 5-HT2C receptor was performed using, as starting material, a preparation of membranes from stable recombinant CHO-K1 cell line expressing the human 5-HT2C receptor. […] The non-specific binding was measured in the presence of 1 μM mianserin. The assay was conducted in Tris-HCl 50 mM buffer (pH 7.4 at 37° C.), 0.1% Ascorbic Acid, 10 μM Pargyline, with incubation for 1 hour at 25° C. The test compounds were dissolved in DMSO, then diluted in buffer (final DMSO concentration 0.01%) and plated on 96-well plates The compounds were tested in duplicate in an 8-points concentration response curve (in a Log scale ranging from 10^−12 to 10^−5 M). SB 242084 was used as reference compound. […] Then the filters were washed with buffer solution and oven-dried for 30 minutes at 45° C. The scintillation liquid was added to each well, and at least 16 hours later the radioactivity was measured for 1 minute using a TopCount (Packard). The IC50 values for each compound were calculated using non-linear regression analysis (GraphPad PRISM software) and the inhibition constants Ki were determined using the equation described by Cheng Y. and Prussof W. H. […] Pharmacol. 22: 3099-3108.

In the case of `CN1C[C@@H](NS(=O)(=O)N(C)C)C[C@@H]2c3cccc4c3c(cn4C)C[C@H]21` [[^3H]-mesulergine, reference compound], the Kd worked out at 1.1 nM.
